Measured values reported in patent US7867492B2, “Compounds for hedgehog pathway blockade in proliferative disorders, including hematopoietic malignancies” (The John Hopkins University, priority 2007, dated 2011).

Tests used:
[1] = test system: prostate tumor xenografts; settings: nude mice
[2] = test system: hematopoietic malignancy cells; test: Hh pathway activity and viability of hematopoietic malignancy cells in vitro; assay type: cell-based
Gli = test: Hh reporter in 3T3 cells cotransfected with SmoA1, Gli2 or Gli1; assay type: cell-based; settings: presence or absence of ShhN

With CC1=C2C[C@H]3[C@@H](CC=C4C[C@@H](O)CC[C@@]43C)[C@@H]2CC[C@]12O[C@@H]1C[C@H](C)CN[C@H]1[C@H]2C [Cyclopamine, cyclopamine] the “Growth of prostate tumor xenografts” value [1] was “suppressed growth of prostate tumor xenografts”, the “Elevated Hh pathway activity in hematopoietic malignancy cells” value [2] was “effectively reduced elevated Hh pathway activity” and the “Viability of hematopoietic malignancy cells” value [2] was “reduced viability of the cells”. The “Hh reporter activity induced by SmoA1, Gli2 or Gli1 over-expression” value (Gli) was “unable to block the pathway activity”.
